Measurements published in patent US20100249419A1, “UTILIZATION OF NOVEL COMPOUNDS WITH AMYLOID AFFINITY AND METHOD OF PRODUCING THE SAME” (NIHON MEDI-PHYSICS CO., LTD., priority 2007, published 2010).

Chains of the proteins cited; added tags and fusions are not shown. Residues count along the entry.
UniProt P05067, 672-713: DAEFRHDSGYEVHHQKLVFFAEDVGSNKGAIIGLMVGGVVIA

Target: T1, aggregated Aβ (Aβ1-42) amyloid (Homo sapiens, UniProt P05067)
T1 construct: Aβ1-42 (manufactured by Wako) was dissolved in phosphate buffer (pH 7.4); purchased Wako
Test: In vitro binding test: inhibition of [^125I]3′-I-BTA-0 binding to amyloid
Details: [^125I]3′-I-BTA-0 400 pmol/L, amyloid 1 μmol/L, 22° C., 3 hours
Description: Affinity of the present compounds with amyloid was examined by the following in vitro binding tests.
The measured radioactivity level was defined as the background radioactivity level, and used in the calculation of the inhibition ratio (hereinafter referred to as BG).
(9) Using the radioactivity levels measured above in (7) and (8), the inhibition ratio was determined by the following formula (1).
A graph in which values converted by probit transformation from the obtained inhibition ratios were plotted relative to logarithms of concentrations of compounds for evaluation was prepared to obtain an approximate straight line by the least square method.

Cc1ccc2c(c1)sc(-c1ccc(N(C)C)cc1)[n+]2C [Thioflavin T, reference compound]
IC50: > 1000 nM
